# Laboratory results as given in patent US6927214B1 (Novo Nordisk A/S, priority 1999, dated 2005).
# By UniProt entry, the sequences of proteins in these tests, tags left out. Residues count along the entry.
# UniProt P43220, 24-463: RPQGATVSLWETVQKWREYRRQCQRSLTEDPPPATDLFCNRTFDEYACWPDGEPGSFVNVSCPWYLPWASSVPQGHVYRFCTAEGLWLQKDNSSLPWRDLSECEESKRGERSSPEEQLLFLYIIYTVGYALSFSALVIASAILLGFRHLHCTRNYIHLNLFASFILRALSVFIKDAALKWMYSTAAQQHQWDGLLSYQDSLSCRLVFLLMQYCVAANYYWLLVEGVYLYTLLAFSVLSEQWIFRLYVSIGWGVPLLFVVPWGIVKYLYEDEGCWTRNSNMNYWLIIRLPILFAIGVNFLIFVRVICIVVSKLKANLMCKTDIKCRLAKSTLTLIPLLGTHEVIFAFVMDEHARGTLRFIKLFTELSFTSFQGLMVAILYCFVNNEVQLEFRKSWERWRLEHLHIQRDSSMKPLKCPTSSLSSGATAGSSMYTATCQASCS
# Target: human GLP-1 receptor (Homo sapiens, UniProt P43220)
# Assay: Saturation experiments with labelled GLP-1 tracer on plasma membranes, with or without example 2
# Assay type: binding
# Set-up: expressed in transfected cells; host or cells: BHK (baby hamster kidney) cells; plasma membranes prepared from them
substance,measurement,setting,value
GLP-1,Bmax,"absence of example 2, 30° C., first of two binding sites (low affinity)",6.5 pM
same,Bmax,"absence of example 2, 30° C., the other of two binding sites (high affinity)",2.0 pM
same,Bmax,"presence of 10 μM example 2, 30° C., one binding site",7.5 pM
